8 compounds from patent publication US20100016274A1, “BETA-LACTAM CANNABINOID RECEPTOR MODULATORS” (priority 2006, published 2010) can be followed below.

Protein sequences, listed by entry. Tags and fused reporters are not part of them.
UniProt P21554, whole entry: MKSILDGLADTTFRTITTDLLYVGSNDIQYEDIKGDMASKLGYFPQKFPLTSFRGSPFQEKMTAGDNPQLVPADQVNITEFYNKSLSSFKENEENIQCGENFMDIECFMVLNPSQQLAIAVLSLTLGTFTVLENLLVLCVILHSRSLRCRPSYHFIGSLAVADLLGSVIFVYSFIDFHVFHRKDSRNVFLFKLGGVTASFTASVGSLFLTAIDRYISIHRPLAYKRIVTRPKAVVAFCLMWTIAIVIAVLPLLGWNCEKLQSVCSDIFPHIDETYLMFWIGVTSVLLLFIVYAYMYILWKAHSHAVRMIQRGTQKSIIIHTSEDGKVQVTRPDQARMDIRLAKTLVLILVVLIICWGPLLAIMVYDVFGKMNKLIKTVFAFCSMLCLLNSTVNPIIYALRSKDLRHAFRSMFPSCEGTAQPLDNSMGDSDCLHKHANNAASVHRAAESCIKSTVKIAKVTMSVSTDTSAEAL
UniProt P34972, whole entry: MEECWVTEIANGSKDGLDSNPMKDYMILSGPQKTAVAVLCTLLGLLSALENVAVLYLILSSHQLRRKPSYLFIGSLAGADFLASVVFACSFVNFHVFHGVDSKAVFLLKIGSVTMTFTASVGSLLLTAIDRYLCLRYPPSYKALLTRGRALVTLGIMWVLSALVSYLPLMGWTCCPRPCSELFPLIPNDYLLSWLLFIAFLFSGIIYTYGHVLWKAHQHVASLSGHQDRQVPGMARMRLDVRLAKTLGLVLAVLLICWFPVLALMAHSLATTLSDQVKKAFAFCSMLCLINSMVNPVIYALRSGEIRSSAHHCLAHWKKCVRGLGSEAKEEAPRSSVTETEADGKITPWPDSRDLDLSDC

In assay [1] the target is cannabinoid receptor-1 (CB1), CB1R-containing cell membrane (Homo sapiens, UniProt P21554). Particulars: for IC50: displacement of 3H-CP55940 (1 nM) on CB1 receptors.
The target in assay [2] is cannabinoid receptor-2 (CB2), CB2R-containing cell membrane; hCB2 receptors (Homo sapiens, UniProt P34972). The assay is described as follows: Cannabinoid Receptor-2 (CB2) Binding Assay, Method A using cell membranes (displacement of 3H-CP55940). Particulars: for IC50: displacement of 3H-CP55940 (1 nM), CB2R-containing cell membrane.

Turning to `COc1cccc(C=CC2C(N3C(=O)OCC3c3ccccc3)C(=O)N2C(CCC(=O)N2CCN(C3CCCCC3)CC2)C(=O)NC2(c3ccccc3)CCCC2)c1` (stereo not shown), the IC50 in assay [1] is less than 10000 nM. `O=C(N[C@@H]1CCCc2ccccc21)[C@H](CCC(=O)N1CCN(C2CCCCC2)CC1)N1C(=O)[C@@H](N2C(=O)OC[C@@H]2c2ccccc2)[C@H]1/C=C/c1cccc(F)c1` registered an IC50 in assay [1] of 10000 nM. Consider `O=C(NC1(c2ccccc2)CCCC1)[C@H](CCC(=O)N1CCN(C2CCCCC2)CC1)N1C(=O)[C@@H](N2C(=O)OC[C@@H]2c2ccccc2)[C@H]1/C=C/c1cccc(Cl)c1`, for which the half-maximal inhibitory concentration (IC50) in assay [1] worked out at 10000 nM.

Consider `O=C(NCc1cccc(C(F)(F)F)c1)[C@@H](CCCc1ccccc1)N1C(=O)[C@@H](N2C(=O)OC[C@@H]2c2ccccc2)[C@H]1/C=C/c1ccccc1`, for which, in assay [2], the IC50 was determined as 480 nM. The compound further had an inhibition constant (Ki) in assay [2] (displacement of 3H-CP55940, CB2R-containing cell membrane, from serial dilutions) of 320 nM. Consider `O=C(NCc1cccc(C(F)(F)F)c1)[C@@H](CC(=O)N1CCC(CN2CCCCC2)CC1)N1C(=O)[C@@H](N2C(=O)OC[C@@H]2c2ccccc2)[C@H]1/C=C/c1ccccc1`, for which the IC50 in assay [2] worked out at 1000 nM. `CSc1cccc(/C=C/[C@@H]2[C@H](N3C(=O)OC[C@@H]3c3ccccc3)C(=O)N2[C@@H](CCC(=O)N2CCN(C3CCCCC3)CC2)C(=O)N[C@@H]2CCCc3ccccc32)c1`: the IC50 in assay [1] is less than 10000 nM. As for `COc1cccc(/C=C/[C@@H]2[C@H](N3C(=O)OC[C@@H]3c3ccccc3)C(=O)N2[C@@H](CCC(=O)N2CCN(C3CCCCC3)CC2)C(=O)N[C@@H]2CCCc3ccccc32)c1`, the IC50 in assay [1] is 1190 nM. For the same compound, in assay [1] (displacement of 3H-CP55940 on CB1 receptors, from serial dilutions, non-linear regression), the Ki amounted to 595 nM. `O=C(N[C@@H]1CCCc2ccccc21)[C@H](CCC(=O)N1CCN(C2CCCCC2)CC1)N1C(=O)[C@@H](N2C(=O)OC[C@@H]2c2ccccc2)[C@H]1/C=C/c1cccc(Cl)c1` gave an IC50 in assay [1] of 10000 nM.
